These are literature values, as cited in patent US11149040B2, “Fused triazole agonists of the APJ receptor” (AMGEN INC., priority 2017, dated 2021).

The conditions of this series: cited from earlier work.

Regarding Apelin-13, the plasma half-life is recorded as less than 5 min.
